# Antibody variant affinities, Ab-14 light chain, assay B

From the AlphaSeq antibody data of Li et al. 2023 (doi:10.1038/s41467-023-39022-2), copy in the FLAb collection.

Target: peptide PDVDLGDISGINAS, taken from heptad repeat 2 (HR2) of SARS-CoV-2 spike.

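Phage display of a naive human antibody library on the peptide gave the parent. These sequences belong to a second round, designed from the earlier measurements on random variants of the parent. Their group label is 14L_En_Gen (En: ensemble of fine-tuned language models; Gen: genetic algorithm). AlphaSeq pools MATa yeast showing the antibodies with MATalpha yeast showing the peptide. After mating in shaken culture at 30 °C for 16 h, diploids were selected and their barcode pairs sequenced. Scores were corrected for input abundance and mapped to Kd with protein pairs of known affinity run in the same pool. Mating was done six times.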

Ab-14 is the parent antibody, in scFv form: VH, then a (GGGGS)3 linker, then VL. The heavy chain is unchanged in all variants.
VH: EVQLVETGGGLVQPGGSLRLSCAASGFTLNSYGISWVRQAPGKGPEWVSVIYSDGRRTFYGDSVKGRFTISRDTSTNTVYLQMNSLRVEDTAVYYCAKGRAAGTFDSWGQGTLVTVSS
VL: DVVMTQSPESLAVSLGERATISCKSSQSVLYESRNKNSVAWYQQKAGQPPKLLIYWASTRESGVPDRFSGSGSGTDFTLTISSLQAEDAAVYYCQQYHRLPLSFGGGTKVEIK

Sequences are complete VL domains.
Affinities are written as log10 Kd with Kd in nM; a lower number is a better binder.
A pair that was not seen in that replicate is written "n.d."; this usually means weak binding, but a binder can also be missed.
Background: pairings of all light chain designs with three empty control strains gave a value in 4% of cases (median 2.64, 5th percentile 1.59). Values in that range, when seen in few replicates, are hard to tell from nonspecific mating. The control count says in how many pairings with the empty strains this scFv gave a signal, with their mean in brackets.

VL | log10 Kd (nM) by replicate | empty controls
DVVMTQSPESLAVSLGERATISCMISQLSNMGQFAINSVAWYQQKAGQPPKLLIYQMSVRNEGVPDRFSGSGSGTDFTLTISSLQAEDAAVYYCQQYDRLPLAFGGGTKVEIK | 2.47 / 2.20 / 1.53 / 1.16 / 1.83 / 1.41 | 1/18 (2.68)
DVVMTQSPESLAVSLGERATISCMVTQMAMTGMTNKRSVAWYQQKAGQPPKLLIYNAEQREDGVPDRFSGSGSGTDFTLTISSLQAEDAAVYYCQQYHRLPLIFGGGTKVEIK | 0.34 / 0.71 / 0.72 / 0.69 / 0.39 / 0.71 | 0/18
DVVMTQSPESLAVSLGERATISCMISQMYNMGQFAINSVAWYQQKAGQPPKLLIYQASIRNDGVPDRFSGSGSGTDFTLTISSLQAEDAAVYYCQQYDRLPLIFGGGTKVEIK | n.d. / 1.55 / n.d. / 1.72 / n.d. / 1.82 | 0/18
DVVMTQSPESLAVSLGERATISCMVTQMAMTGMMSKRSVAWYQQKAGQPPKLLIYNATMREYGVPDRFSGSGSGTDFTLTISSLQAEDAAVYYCQQYDRLPLIFGGGTKVEIK | 0.97 / 0.53 / 1.17 / 1.15 / 0.83 / 0.94 | 0/18
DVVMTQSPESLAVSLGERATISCTISQMSTMFSQSINNVAWYQQKAGQPPKLLIYEVSTREQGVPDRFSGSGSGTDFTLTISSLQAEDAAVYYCQQYDRLPLAFGGGTKVEIK | 0.69 / 0.30 / 0.11 / 0.59 / 0.24 / 0.36 | 0/18
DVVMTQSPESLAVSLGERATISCMLYGAAMGLSRKENSVAWYQQKAGQPPKLLIYDNSTRYSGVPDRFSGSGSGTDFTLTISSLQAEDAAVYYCQQYDRLPLSFGGGTKVEIK | n.d. / n.d. / 2.50 / n.d. / n.d. / 1.40 | 0/18
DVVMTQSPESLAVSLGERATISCKIGYNMGTESFRKDNIAWYQQKAGQPPKLLIYDVRDREEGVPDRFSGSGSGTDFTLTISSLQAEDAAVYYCQQYFRLPLSFGGGTKVEIK | 0.27 / 0.43 / 0.44 / 0.41 / 0.52 / 0.63 | 0/18
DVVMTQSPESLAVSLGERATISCKLYDMSALTVTNIRNVAWYQQKAGQPPKLLIYDNDTREQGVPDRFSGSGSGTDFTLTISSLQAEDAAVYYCQQYHRLPLSFGGGTKVEIK | 1.46 / 0.83 / 0.82 / 0.88 / 1.13 / 1.15 | 4/18 (3.43)
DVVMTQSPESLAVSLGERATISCKIGMTLNQLMHKKNNVAWYQQKAGQPPKLLIYDLVTREMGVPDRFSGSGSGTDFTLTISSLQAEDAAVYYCQQYARLPLSFGGGTKVEIK | 0.70 / 0.58 / 0.61 / 0.64 / 0.59 / 0.58 | 1/18 (3.07)
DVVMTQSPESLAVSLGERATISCIVSQLMLWGMHVKNSIAWYQQKAGQPPKLLIYEAQTRLNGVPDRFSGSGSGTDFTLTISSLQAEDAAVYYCQQYDRLPLMFGGGTKVEIK | 0.68 / 1.27 / 1.96 / 0.99 / 1.98 / 2.43 | 1/18 (1.72)
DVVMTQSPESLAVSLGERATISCTIGHTLMQGIRNRSNVAWYQQKAGQPPKLLIYEVSQRLNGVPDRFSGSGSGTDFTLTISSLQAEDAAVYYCQQYDRLPLIFGGGTKVEIK | 1.76 / 2.04 / 1.44 / 1.67 / 1.72 / 2.51 | 3/18 (2.60)
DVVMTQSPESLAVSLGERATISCHITYGMQVMGRHSKSIAWYQQKAGQPPKLLIYQAETREKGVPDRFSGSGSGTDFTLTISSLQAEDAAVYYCQQYDRLPLSFGGGTKVEIK | 1.26 / 1.39 / 0.94 / 0.85 / 0.76 / 0.94 | 0/18
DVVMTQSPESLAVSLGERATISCQLYEMSYELSGKTHSVAWYQQKAGQPPKLLIYDNSTRGDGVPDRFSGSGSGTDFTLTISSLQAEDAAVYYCQQYFRLPLDFGGGTKVEIK | 0.42 / -0.04 / 0.53 / 0.33 / -0.28 / 0.19 | 0/18
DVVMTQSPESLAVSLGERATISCMISQLYNMGQFAINSVAWYQQKAGQPPKLLIYQASERSNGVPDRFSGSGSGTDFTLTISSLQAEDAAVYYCQQYDRLPLMFGGGTKVEIK | 2.07 / 1.36 / 2.01 / 1.85 / 2.44 / 2.38 | 1/18 (2.00)
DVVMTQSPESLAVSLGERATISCSLGLATMLEEYARNSVAWYQQKAGQPPKLLIYNNSTRESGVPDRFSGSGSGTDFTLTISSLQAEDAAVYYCQQYDRLPLSFGGGTKVEIK | n.d. / 4.49 / 4.13 / n.d. / n.d. / n.d. | 3/18 (2.95)
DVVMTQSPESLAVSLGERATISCIVSQLMLWGKSAKNSIAWYQQKAGQPPKLLIYEAVTRLNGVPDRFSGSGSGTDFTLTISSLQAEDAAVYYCQQYDRLPLIFGGGTKVEIK | 2.03 / 0.89 / n.d. / n.d. / 1.52 / 1.97 | 1/18 (2.12)
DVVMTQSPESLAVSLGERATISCMMSQVTGSGTRHRNNVAWYQQKAGQPPKLLIYQTSVREPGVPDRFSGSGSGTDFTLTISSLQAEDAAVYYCQQYDRLPLIFGGGTKVEIK | 1.04 / 1.19 / 1.71 / 1.10 / 0.72 / 1.20 | 0/18
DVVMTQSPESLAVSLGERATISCTISQVMNTLTRNGNNVAWYQQKAGQPPKLLIYDLQEREKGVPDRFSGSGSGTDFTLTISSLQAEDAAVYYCQQYFRLPLTFGGGTKVEIK | -0.26 / -0.44 / 0.12 / -0.42 / -0.41 / -0.03 | 0/18
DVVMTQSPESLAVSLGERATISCMVSQLMLWGMHVKNSIAWYQQKAGQPPKLLIYEAQTRLNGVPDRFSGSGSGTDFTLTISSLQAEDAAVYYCQQYDRLPLIFGGGTKVEIK | n.d. / n.d. / n.d. / n.d. / n.d. / n.d. | 0/18
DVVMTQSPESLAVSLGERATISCKVSEFMRGLMQQKDSIAWYQQKAGQPPKLLIYDNVTRNNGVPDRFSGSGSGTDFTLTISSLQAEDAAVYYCQQYDRLPLSFGGGTKVEIK | 1.29 / 1.58 / 1.94 / 2.55 / 1.67 / 3.24 | 1/18 (2.43)
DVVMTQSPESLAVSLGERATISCKLTMITGLEKVSNNNVAWYQQKAGQPPKLLIYEMETREVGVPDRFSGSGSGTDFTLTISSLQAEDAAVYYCQQYNRLPLSFGGGTKVEIK | 0.72 / 0.42 / 0.36 / 0.28 / 0.00 / 0.45 | 0/18
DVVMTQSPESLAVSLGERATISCHMSMLTLQGMRMRNSVAWYQQKAGQPPKLLIYQMTTRENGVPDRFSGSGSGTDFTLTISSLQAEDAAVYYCQQYDRLPLSFGGGTKVEIK | 1.29 / 1.05 / 1.56 / 2.13 / 0.90 / 1.84 | 0/18
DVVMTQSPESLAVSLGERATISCRLSALSGIQSVERNSVAWYQQKAGQPPKLLIYQNSTREEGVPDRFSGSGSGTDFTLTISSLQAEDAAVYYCQQYDRLPLSFGGGTKVEIK | n.d. / 1.68 / n.d. / 2.84 / 1.58 / n.d. | 1/18 (2.09)
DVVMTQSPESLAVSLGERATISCMVNGIMDHLSKQRNNVAWYQQKAGQPPKLLIYETETRESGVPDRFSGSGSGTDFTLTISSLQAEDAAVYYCQQYDRLPLSFGGGTKVEIK | 0.65 / 0.58 / 0.44 / 0.27 / 0.58 / 0.56 | 1/18 (2.03)

The 2 strongest on average among those seen in every replicate, once more:

VL,log10 Kd (nM) by replicate,empty controls
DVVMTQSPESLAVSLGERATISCTISQVMNTLTRNGNNVAWYQQKAGQPPKLLIYDLQEREKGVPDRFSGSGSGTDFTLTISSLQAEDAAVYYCQQYFRLPLTFGGGTKVEIK,-0.26 / -0.44 / 0.12 / -0.42 / -0.41 / -0.03,0/18
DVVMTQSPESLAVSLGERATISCQLYEMSYELSGKTHSVAWYQQKAGQPPKLLIYDNSTRGDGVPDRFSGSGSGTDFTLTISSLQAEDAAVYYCQQYFRLPLDFGGGTKVEIK,0.42 / -0.04 / 0.53 / 0.33 / -0.28 / 0.19,0/18

The parent sequence was in this pool as ten entries: three were never detected, three once, and four in most replicates, with averages from 0.34 to 2.37.
The range of this assay differs from that of the first round, and the authors advise against merging the two.
The authors' rule: three or more of the six replicates give a measured affinity, fewer mean a poor binder.